Experiment [1] addresses T1, BRD4(BD1) (Homo sapiens, UniProt O60885).
T1 construct: purchased BPS Bioscience (printed as 'BSP') 32514
The experiment can be described thus: BRD4 (BD1) Inhibitor Screening Assay Kit (AlphaScreen). It is filed as binding. The conditions noted are these: compound 10 μM, triplicate. The method, then:
The activity of synthesized compounds against BRD4 was measured by AlphaScreen assay using BRD4(BD1) Inhibitor Screening Assay Kit (BSP-32514) as reported before. ,
Compounds were first tested in triplicate at a concentration of 10 μM, using (+)-JQ1 as reference compound.
Briefly, compounds 31, 63, or (+)-JQ1 (as reference compound) or DMSO (2%) were preincubated with BRD4(BD1) protein and histone H4(1–21)-K5/8/12/16Ac-BiotinOH at room temperature for 30 min. After that, 10 μL of acceptor and donor beads (250-fold diluted) were added, protecting them from light. The results were measured 60 min later using the Enspire microplate analyzer (PerkinElmer, California, USA). Each compound was tested in triplicate, and GraphPad Prism (version 8.0) was used to analyze the data, employing the equation log(inhibitor) vs normalized response-variable slope
Background: Bead proximity is the source of the signal in Alpha formats.

The target in experiment [2] is histone H4(1-21)K5/8/12/16Ac-BiotinOH (UniProt P62805). The experiment can be described thus: AlphaScreen or HTRF; as a1, with compound 63 at 10 uM, in triplicate; residual binding in percent.
Experiment [3] has the same target. The experiment can be described thus: AlphaScreen or HTRF; as a1, with compound 31 at 10 uM, in triplicate; residual binding in percent.

As for `CC(C)C[C@H]1C(=O)N(Cc2ccc(C(F)(F)F)cc2)c2ccccc2C(=O)N1Cc1ccc(C(F)(F)F)cc1` [Compound 31, (S)-3-Isobutyl-1,4-bis(4-(trifluoromethyl)benzyl)-3,4-dihydro-1H-benzo[e][1,4]diazepine-2,5-dione], the “residual BRD4 binding to acetylated H4” value in experiment [1] was determined as 24.17 ± 0.03%.

“Bromodomain-containing protein 4, first bromodomain, BRD4(BD1) (domain or fragment)”: the residual binding with 10 uM compound 63 in experiment [2] turned out to be 6.52%. Moreover, the residual binding with 10 uM compound 31 in experiment [3] came out at 24.2%.

With `CC(C)C[C@@H](C(=O)OCc1ccccc1)N1Cc2ccccc2NC1=O` [Compound 63, Benzyl (S)-4-Methyl-2-(2-oxo-1,4-dihydroquinazolin-3(2H)-yl)pentanoate], the “residual BRD4 binding to acetylated H4” value in experiment [1] was found to be 6.52 ± 2.96%.

For the origin of these results see publication PMC12362587, “Untargeted Diversity-Oriented Synthesis for the Discovery of New Antitumor Agents: An Integrated Approach of Inverse Virtual Screening, Bioinformatics, and Omics for Target Deconvolution” (Journal of Medicinal Chemistry, 2025).
